The values below come from ChEMBL document CHEMBL4184332, “Discovery of Novel Nonsteroidal Anti-Inflammatory Drugs and Carbonic Anhydrase Inhibitors Hybrids (NSAIDs-CAIs) for the Management of Rheumatoid Arthritis” (J Med Chem, 2018).

The chains behind the UniProt entries cited, without tags or fusion partners. Where a name states a change or a piece, a line headed by the entry shows the natural chain unless it says otherwise.
UniProt P22748: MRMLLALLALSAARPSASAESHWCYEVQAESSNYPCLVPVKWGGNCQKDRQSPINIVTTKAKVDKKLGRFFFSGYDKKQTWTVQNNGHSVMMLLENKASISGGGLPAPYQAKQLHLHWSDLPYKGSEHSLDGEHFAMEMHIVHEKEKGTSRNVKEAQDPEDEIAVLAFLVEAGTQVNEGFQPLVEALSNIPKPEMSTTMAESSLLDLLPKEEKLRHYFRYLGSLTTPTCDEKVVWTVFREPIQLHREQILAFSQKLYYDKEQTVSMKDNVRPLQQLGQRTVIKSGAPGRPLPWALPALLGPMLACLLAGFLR
UniProt P00915: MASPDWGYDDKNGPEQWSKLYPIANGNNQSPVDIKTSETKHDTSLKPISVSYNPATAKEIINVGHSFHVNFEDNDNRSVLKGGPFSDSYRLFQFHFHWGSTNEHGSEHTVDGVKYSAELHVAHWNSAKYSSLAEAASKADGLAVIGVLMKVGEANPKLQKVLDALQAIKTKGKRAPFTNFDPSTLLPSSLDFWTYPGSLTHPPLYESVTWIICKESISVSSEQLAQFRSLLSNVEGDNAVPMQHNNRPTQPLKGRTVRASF

One assay has as its target Carbonic anhydrase 4 (Homo sapiens, UniProt P22748). The experiment in a line: Potency index, ratio of acetazolamide Ki to test compound Ki for recombinant human carbonic anhydrase-4.
In another assay the target is Carbonic anhydrase 9 (Homo sapiens, UniProt Q16790). The experiment in a line: Potency index, ratio of acetazolamide Ki to test compound Ki for recombinant human carbonic anhydrase-9 catalytic domain.
Another assay deals with Carbonic anhydrase 2 (Homo sapiens, UniProt P00918). Nature of the assay: Potency index, ratio of acetazolamide Ki to test compound Ki for recombinant human carbonic anhydrase-2. The procedure, abridged:
(§1)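 Recombinant human CA, made in house, in a stopped-flow CO₂ hydration assay. Conditions: 20 mM Hepes pH 7.5, 20 mM Na₂SO₄, 0.2 mM phenol red read at 557 nm, CO₂ 1.7-17 mM. Enzyme and inhibitor were preincubated 15 min at room temperature. Initial rates were corrected for the uncatalyzed rate. Ki came from nonlinear least squares, mean of three measurements. The ratio uses the acetazolamide Ki.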

The target in another assay is Carbonic anhydrase 1 (Homo sapiens, UniProt P00915). The experiment in a line: Potency index, ratio of acetazolamide Ki to test compound Ki for recombinant human carbonic anhydrase-1. A digest of the protocol:
as §1

Consider `CC(C(=O)NCCCOc1ccc(S(N)(=O)=O)cc1)c1cccc(C(=O)c2ccccc2)c1` (racemic), for which the Ratio Ki came out at 1.16 on Carbonic anhydrase 4 and 2 at Carbonic anhydrase 9.

For the compound `COc1ccc2c(c1)c(CC(=O)NCCCCOc1ccc(S(N)(=O)=O)cc1)c(C)n2C(=O)c1ccc(Cl)cc1`, the Ratio Ki at Carbonic anhydrase 9 amounted to 3.35; at Carbonic anhydrase 2, 1.5.

On to `CC(C(=O)NCCCCOc1ccc(S(N)(=O)=O)cc1)c1cccc(C(=O)c2ccccc2)c1` (racemic), for which the Ratio Ki was determined as 12 on Carbonic anhydrase 1, 3.23 on Carbonic anhydrase 9 and 1.98 at Carbonic anhydrase 2.

For `COc1ccc2cc(C(C)C(=O)NCCc3ccc(S(N)(=O)=O)cc3)ccc2c1` (stereo not given), the Ratio Ki on Carbonic anhydrase 9 was found to be 2.

For `CC(C)Cc1ccc(C(C)C(=O)NCCCOc2ccc(S(N)(=O)=O)cc2)cc1` (racemic), the Ratio Ki at Carbonic anhydrase 4 came to 1.16; on Carbonic anhydrase 9, 2.5.
